Data set [1] concerns neuronal serotonin reuptake. Particulars: cited from earlier work.
The test system of data set [2] is treatment resistant depression. The data set is classed as in vivo, human. Particulars: augmenting Zoloft, titrated to 120 mg.
The conditions of data set [3]: cited from earlier work; for time to peak plasma concentration: after oral dosing.
For data set [4] the following is noted: cited from earlier work; for mean increase in Cmax / mean increase of the AUC: following fluvoxamine.
In data set [5] the test system is muscarinic, α1-adrenergic, α2-adrenergic, β-adrenergic, dopamine (D2), 5-HT1, 5-HT2, and histamine (H1) receptors. To be noted: cited from earlier work.
For data set [6], the system named is serotonin 5-HT2, dopamine D2, α1 and α2 adrenergic, and H1 histaminergic receptors. To be noted: cited from earlier work.
Where [7] appears, read: with fluoxetine 60 mg single dose or 60 mg daily for 8 days.

Counter-ions that a name gives are not always drawn. Like-named read-outs stand apart in the source and are kept apart here.

Regarding “1-(aminoethyl)cyclohexaneacetic acid [gabapentin]”, in data set [1], the “inhibition of serotonin reuptake (in words)” value is “does not alter”.

As to `CNCC[C@H](Oc1cccc2ccccc12)c1cccs1.Cl` [duloxetine, (+)-(S)-N-methyl-γ-(1-naphthyloxy)-2-thiophenepropylamine hydrochloride], the resolution of depression result in data set [2] is “approximately 50%”. The “time to steady state plasma concentrations” value in data set [3] (repeated dosing) was 3 days.

Regarding `Cc1cc2c(s1)Nc1ccccc1N=C2N1CCN(C)CC1` [olanzapine, 2-methyl-4-(4-methyl-1-piperazinyl)-10H-thieno[2,3-b][1,5]benzodiazepine], the “time to peak plasma concentration” value in data set [3] is recorded as “approximately 6 hours”. Further, in data set [3] (daily dosing), the “time to steady state plasma concentrations” value is given as “about 1 week”. The “fraction of the dose metabolized before reaching system circulation (first pass)” value in data set [3] (human, in vivo) is “approximately 40%”. Moreover, the figures for the clearance entry in data set [4] (co-administered with fluvoxamine) and in data set [4] (setting [7]) were “decreases” and “small decrease”, respectively. Further, the “mean increase in Cmax” value is on record as 54% in data set [4] (female non smokers) and 77% in data set [4] (male smokers). Besides, the “mean increase of the AUC” value in data set [4] (female non smokers) is 52%; in data set [4] (male smokers), 108%. In addition, in data set [4] (olanzapine co-administered with valproate), the “effect on each drug's metabolism” value is on record as “little effect”. The maximum concentration entry in data set [4] (setting [7]) is given as “small increase”.

Take `Fc1ccc([C@@H]2CCNC[C@H]2COc2ccc3c(c2)OCO3)cc1` [paroxetine, (−)-trans-4R-(4′-fluorophenyl)-3S-[(3′,4′-methylenedioxyphenloxy)methyl]piperidine hydrochloride hemihydrate]: in data set [5], the affinity entry is reported as “little affinity”.

Turning to `Cc1nc2n(c(=O)c1CCN1CCC(c3noc4cc(F)ccc34)CC1)CCCC2` [risperidone, 3-[2-[4-(6-fluoro-1,2-benzisoxazol-3-yl)piperidino]ethyl]-2-methyl-6,7,8,9-tetrahydro-4H-pyrido-[1,2-a]pyrimidin-4-one], the “time to peak plasma concentration” value in data set [3] is “about 1 hours”. Also, the figures for the half-life in data set [3] (extensive metabolizers) and in data set [3] (poor metabolizers) were 3 h and 20 h, respectively. Moreover, the figures for the “time to steady state concentrations” value in data set [3] (extensive metabolizers) and in data set [3] (poor metabolizers (expected)) were 1 days and “about 5 days”, respectively. In addition, the “decrease of clearance of risperidone and its metabolites” value in data set [3] (renally impaired) is reported as 60%. Besides, in data set [4] (co-administered with fluoxetine (20 mg QD)), the “increase of plasma concentrations” value is 2.5-2.8 fold. For the same compound, the affinity result in data set [6] is given as “high affinity”.
